{"sequences": {"note": "Protein sequences, listed by entry. Tags and fused reporters are not part of them.", "UniProt O56129, whole entry": "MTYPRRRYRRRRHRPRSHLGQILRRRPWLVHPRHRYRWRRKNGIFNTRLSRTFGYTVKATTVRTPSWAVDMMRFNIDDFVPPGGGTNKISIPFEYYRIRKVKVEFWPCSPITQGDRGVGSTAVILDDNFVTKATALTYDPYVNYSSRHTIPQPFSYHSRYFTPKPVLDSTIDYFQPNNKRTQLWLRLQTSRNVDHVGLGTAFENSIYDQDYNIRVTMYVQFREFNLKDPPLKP"}, "source": "paper PMC6899342", "about": "“Design and preliminary application of affinity peptide based on the structure of the porcine circovirus type II Capsid (PCV2 Cap)” (PeerJ, 2019)", "biological_target": "T1, PCV2 Cap protein (Porcine circovirus 2, UniProt O56129)", "T1 construct": "made in house; host or cells: E. coli BL21 (pET28a-Cap)", "experiment": "biochemical", "assay_type": "binding, porcine circovirus type II", "conditions": "pH 7.4, read-out: ka", "protocol": "The equilibrium binding constant (KD) of peptides was determined using an Open SPR instrument (Nicoya, Canada). First, purified Cap protein was covalently immobilized on a carboxyl Au colloidal nanoparticles chip. […] Then, all peptides were respectively dissolved in PBS at predetermined concentrations and injected to detect the resonance signal changes. In each cycle, 300 µL of peptide solution was injected into the flow cell of the Cap chip for 5 min. Finally, the data were assessed to determine the association constant (ka, 1/Ms), the dissociation constant (kd, 1/s), the equilibrium binding constant (KD, M), and KD = kd/ka via Trace Drawer 1.7 (Nicoya, Canada).\nAll the steps were performed according to manufacturer’s instructions. First, the activation of carboxyl chip: the chip is activated by the EDC/NHS reagent in the amine coupling kit. […] The last step is to block the chip with blocking buffer. In every step, The 300 μL sample was flowed through the chip for 5 min at a constant flow rate of 20 μL/min.\nDissociation constant Kd represents the ratio of AB (ie, AB) dissociated in unit time to the initial AB before dissociation, which represents the speed of the dissociation reaction.Equilibrium dissociation constant KD =kd/ka, KD unit is M (mol/L)\n1:1 binding interaction model represents the binding mode of ligand and target according to 1:1. […]", "note": "Where no end group is shown, it is not given here.", "data": [{"sequence": "DYWWQSWE [Peptide L11]", "values": [{"measurement": "kon", "value": 10100, "unit": "M⁻¹ s⁻¹"}]}]}
